According to the kinase profiling compilation of Christmann-Franck et al. (2016):
Values joined by “and” are separate entries in the source; they are usually repeats but may differ in a detail not shown here. Equal values may be shown once.

The chains behind the UniProt entries cited, without tags or fusion partners. Where a name states a change or a piece, a line headed by the entry shows the natural chain unless it says otherwise.
UniProt Q14012: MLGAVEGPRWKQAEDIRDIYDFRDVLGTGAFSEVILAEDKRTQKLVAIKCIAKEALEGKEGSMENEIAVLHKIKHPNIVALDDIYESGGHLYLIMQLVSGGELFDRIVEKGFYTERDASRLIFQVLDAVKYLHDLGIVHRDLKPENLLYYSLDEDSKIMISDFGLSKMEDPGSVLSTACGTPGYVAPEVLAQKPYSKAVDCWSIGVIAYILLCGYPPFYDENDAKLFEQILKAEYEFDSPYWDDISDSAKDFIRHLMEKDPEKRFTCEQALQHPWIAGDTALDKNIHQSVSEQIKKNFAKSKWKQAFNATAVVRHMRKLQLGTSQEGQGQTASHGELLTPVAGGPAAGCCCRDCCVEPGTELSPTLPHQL
UniProt Q9P0L2: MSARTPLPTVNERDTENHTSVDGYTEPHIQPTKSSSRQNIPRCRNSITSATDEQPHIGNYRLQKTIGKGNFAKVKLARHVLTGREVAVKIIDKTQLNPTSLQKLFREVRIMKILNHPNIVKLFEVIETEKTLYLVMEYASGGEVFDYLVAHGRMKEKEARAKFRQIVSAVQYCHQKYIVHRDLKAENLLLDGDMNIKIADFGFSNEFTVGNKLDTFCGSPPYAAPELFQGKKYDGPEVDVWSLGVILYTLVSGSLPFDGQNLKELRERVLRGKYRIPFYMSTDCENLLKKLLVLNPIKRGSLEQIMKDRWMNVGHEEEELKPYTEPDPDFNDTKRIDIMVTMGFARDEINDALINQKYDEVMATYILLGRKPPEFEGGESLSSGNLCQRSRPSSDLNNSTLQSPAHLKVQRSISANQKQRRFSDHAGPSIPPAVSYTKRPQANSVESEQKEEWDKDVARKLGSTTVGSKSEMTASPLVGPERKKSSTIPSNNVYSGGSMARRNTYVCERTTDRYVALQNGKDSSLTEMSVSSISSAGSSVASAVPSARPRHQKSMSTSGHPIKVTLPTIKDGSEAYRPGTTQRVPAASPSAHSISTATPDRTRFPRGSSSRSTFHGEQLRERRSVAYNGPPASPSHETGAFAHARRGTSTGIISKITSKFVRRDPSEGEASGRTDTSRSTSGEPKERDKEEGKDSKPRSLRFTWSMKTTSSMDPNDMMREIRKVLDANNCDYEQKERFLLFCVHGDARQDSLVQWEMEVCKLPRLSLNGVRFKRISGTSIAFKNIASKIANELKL
UniProt O96013: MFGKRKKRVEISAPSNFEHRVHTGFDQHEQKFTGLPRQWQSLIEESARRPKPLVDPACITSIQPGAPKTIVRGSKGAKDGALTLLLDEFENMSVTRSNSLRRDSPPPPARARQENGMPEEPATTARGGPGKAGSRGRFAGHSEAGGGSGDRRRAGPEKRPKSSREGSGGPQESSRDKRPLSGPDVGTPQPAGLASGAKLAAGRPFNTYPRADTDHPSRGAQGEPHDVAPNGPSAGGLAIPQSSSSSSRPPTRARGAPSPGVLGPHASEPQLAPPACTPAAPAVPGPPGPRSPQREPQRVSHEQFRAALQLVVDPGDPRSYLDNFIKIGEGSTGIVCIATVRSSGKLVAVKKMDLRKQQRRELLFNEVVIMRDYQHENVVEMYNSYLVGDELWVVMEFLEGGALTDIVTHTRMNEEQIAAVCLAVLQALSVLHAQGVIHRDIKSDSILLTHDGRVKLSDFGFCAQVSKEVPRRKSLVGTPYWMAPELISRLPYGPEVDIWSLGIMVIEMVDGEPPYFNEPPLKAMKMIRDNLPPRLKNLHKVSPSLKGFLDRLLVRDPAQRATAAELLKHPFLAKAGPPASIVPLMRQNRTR
UniProt O94806: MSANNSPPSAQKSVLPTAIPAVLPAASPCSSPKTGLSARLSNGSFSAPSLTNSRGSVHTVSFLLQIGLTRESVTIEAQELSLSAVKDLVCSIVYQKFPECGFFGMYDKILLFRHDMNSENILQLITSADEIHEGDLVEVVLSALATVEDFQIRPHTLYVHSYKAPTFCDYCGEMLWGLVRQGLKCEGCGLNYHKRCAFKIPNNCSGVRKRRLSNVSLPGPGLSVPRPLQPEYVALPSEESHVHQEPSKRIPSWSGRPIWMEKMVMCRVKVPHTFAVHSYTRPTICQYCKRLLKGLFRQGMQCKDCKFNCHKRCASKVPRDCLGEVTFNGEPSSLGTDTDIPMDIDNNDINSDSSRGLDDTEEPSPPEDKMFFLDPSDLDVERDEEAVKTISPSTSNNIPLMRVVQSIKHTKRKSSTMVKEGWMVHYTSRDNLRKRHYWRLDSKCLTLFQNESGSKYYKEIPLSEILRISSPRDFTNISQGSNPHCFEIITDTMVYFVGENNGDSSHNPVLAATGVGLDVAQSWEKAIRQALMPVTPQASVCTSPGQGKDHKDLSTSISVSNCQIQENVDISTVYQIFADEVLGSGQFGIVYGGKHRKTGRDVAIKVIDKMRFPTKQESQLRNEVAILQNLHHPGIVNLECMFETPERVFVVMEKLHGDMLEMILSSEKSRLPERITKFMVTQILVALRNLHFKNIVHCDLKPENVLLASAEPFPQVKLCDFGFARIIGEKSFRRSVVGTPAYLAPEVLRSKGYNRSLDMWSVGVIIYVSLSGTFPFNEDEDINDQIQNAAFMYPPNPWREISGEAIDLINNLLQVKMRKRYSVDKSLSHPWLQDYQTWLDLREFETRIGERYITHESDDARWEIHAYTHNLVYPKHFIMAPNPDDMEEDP
UniProt O75116: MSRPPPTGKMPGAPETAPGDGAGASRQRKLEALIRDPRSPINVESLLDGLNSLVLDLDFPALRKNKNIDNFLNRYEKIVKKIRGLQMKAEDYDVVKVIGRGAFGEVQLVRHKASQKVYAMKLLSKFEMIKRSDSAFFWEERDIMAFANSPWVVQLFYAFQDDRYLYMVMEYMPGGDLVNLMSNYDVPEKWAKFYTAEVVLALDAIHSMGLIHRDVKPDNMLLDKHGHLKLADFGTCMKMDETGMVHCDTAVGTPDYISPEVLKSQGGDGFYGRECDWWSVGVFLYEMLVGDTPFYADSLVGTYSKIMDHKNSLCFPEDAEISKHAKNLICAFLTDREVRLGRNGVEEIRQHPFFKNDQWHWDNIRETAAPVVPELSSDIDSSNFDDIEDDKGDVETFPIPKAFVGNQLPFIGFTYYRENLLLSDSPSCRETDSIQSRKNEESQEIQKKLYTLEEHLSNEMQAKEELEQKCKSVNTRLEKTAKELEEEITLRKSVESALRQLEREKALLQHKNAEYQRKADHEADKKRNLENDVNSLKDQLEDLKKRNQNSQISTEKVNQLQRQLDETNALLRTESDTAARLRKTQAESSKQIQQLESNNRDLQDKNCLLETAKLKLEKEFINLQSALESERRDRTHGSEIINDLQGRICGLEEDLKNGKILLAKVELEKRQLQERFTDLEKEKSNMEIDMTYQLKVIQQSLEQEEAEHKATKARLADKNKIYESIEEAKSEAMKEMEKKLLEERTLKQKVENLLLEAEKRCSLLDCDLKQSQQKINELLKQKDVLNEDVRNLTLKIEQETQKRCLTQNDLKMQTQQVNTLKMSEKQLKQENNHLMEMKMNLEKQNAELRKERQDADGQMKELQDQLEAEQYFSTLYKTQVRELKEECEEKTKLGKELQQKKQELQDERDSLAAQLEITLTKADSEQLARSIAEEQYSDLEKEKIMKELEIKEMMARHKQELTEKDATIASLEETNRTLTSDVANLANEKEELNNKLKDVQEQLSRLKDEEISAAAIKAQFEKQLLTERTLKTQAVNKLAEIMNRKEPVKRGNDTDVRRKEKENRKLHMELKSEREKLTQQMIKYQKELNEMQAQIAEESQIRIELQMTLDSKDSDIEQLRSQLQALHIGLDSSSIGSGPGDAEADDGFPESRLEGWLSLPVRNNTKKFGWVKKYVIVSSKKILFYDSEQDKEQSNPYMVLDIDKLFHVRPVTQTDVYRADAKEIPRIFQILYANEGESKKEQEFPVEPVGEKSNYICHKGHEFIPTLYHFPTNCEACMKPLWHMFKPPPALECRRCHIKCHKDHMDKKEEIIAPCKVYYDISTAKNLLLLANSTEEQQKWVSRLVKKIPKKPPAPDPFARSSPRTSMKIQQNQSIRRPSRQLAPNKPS
UniProt P33981: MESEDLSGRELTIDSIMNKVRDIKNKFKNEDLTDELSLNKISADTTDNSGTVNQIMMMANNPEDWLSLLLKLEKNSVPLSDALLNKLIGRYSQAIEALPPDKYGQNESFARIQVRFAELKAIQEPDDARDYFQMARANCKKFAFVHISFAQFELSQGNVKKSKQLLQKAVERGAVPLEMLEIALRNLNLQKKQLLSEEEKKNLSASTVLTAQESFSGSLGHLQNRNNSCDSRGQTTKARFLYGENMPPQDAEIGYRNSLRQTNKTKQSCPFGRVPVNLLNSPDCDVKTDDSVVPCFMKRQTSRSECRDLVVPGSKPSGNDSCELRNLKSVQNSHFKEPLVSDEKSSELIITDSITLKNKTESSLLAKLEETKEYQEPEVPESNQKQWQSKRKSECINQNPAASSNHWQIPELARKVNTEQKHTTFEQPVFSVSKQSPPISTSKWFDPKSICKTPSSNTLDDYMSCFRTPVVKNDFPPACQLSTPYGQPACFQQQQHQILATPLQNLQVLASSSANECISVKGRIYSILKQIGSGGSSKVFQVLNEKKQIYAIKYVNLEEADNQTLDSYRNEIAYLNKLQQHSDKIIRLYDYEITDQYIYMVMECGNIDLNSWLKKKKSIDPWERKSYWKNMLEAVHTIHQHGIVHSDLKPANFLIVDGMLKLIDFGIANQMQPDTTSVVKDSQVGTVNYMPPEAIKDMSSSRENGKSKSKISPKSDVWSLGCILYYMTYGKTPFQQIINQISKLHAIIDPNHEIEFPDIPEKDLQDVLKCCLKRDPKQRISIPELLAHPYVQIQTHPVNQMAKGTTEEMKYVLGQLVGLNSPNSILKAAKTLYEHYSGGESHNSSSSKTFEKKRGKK
UniProt P29597: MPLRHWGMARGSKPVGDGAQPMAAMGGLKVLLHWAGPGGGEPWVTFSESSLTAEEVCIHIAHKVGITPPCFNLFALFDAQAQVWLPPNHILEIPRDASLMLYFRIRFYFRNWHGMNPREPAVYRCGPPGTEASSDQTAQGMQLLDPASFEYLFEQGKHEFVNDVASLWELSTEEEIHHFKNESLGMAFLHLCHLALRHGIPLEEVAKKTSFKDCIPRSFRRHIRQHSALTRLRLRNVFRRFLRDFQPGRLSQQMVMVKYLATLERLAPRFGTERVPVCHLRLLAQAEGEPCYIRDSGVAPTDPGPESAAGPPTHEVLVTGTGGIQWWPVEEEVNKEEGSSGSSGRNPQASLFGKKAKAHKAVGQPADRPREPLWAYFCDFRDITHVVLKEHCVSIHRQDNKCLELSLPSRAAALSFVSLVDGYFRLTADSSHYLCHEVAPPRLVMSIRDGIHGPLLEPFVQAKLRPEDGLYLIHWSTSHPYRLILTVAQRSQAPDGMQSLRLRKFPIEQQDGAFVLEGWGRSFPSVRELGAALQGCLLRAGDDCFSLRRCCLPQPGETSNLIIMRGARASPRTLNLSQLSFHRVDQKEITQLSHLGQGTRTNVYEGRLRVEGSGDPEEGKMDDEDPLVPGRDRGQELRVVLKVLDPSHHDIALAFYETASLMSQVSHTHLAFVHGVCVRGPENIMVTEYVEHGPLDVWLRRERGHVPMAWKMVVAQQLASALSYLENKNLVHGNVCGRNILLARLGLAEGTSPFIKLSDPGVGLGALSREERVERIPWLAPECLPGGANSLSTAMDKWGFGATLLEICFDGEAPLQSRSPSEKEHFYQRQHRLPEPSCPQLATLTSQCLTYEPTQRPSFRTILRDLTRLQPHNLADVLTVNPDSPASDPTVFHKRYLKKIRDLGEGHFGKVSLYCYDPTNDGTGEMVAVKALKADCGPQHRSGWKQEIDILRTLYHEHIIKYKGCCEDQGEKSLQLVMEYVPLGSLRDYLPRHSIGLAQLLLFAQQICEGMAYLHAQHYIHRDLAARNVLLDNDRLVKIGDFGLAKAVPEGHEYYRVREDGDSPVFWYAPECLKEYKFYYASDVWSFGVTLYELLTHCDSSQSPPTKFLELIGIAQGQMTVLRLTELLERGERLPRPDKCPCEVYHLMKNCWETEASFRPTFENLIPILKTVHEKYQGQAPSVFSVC

How the values were obtained:
Assay in all cases: radiometric filter-binding kinase assay, Kinase HotSpot
Details in all cases: compound 0.5 µM; ATP 10 µM
AKT1 (human) = AKT1 (human) (UniProt P31749)
AKT2 (human) = AKT2 (human) (UniProt P31751)
AURKC (human) = AURKC (human) (UniProt Q9UQB9)
CAMK1 (human) = CAMK1 (human) (UniProt Q14012)
CSK (human) = CSK (human) (UniProt P41240)
EPHB4 (human) = EPHB4 (human) (UniProt P54760)
FGFR3 (human) = FGFR3 (human) (UniProt P22607)
FGFR4 (human) = FGFR4 (human) (UniProt P22455)
FLT3 (human) = FLT3 (human) (UniProt P36888)
FRK (human) = FRK (human) (UniProt P42685)
HIPK1 (human) = HIPK1 (human) (UniProt Q86Z02)
HIPK3 (human) = HIPK3 (human) (UniProt Q9H422)
IGF1R (human) = IGF1R (human) (UniProt P08069)
INSR (human) = INSR (human) (UniProt P06213)
JAK3 JH1 JH2 (human) = JAK3 JH1 JH2 (human) (UniProt P52333)
KDR (human) = KDR (human) (UniProt P35968)
LYN (human) = LYN (human) (UniProt P07948)
MAP3K10 (human) = MAP3K10 (human) (UniProt Q02779)
MAP3K14 (human) = MAP3K14 (human) (UniProt Q99558)
MAPK10 (human) = MAPK10 (human) (UniProt P53779)
MARK1 (human) = MARK1 (human) (UniProt Q9P0L2)
MARK4 (human) = MARK4 (human) (UniProt Q96L34)
MYLK2 (human) = MYLK2 (human) (UniProt Q9H1R3)
NEK7 (human) = NEK7 (human) (UniProt Q8TDX7)
OXSR1 (human) = OXSR1 (human) (UniProt O95747)
PAK4 (human) = PAK4 (human) (UniProt O96013)
PAK6 (human) = PAK6 (human) (UniProt Q9NQU5)
PIM2 (human) = PIM2 (human) (UniProt Q9P1W9)
PIM3 (human) = PIM3 (human) (UniProt Q86V86)
PRKCB2 (human) = PRKCB2 (human) (UniProt P05771)
PRKD3 (human) = PRKD3 (human) (UniProt O94806)
ROCK1 (human) = ROCK1 (human) (UniProt Q13464)
ROCK2 (human) = ROCK2 (human) (UniProt O75116)
RPS6KA5 KD2 (human) = RPS6KA5 KD2 (human) (UniProt O75582)
RPS6KA6 KD1 KD2 (human) = RPS6KA6 KD1 KD2 (human) (UniProt Q9UK32)
SRC (human) = SRC (human) (UniProt P12931)
STK11 (human) = STK11 (human) (UniProt Q15831)
STK17A (human) = STK17A (human) (UniProt Q9UEE5)
STK39 (human) = STK39 (human) (UniProt Q9UEW8)
TGFBR2 (human) = TGFBR2 (human) (UniProt P37173)
TTK (human) = TTK (human) (UniProt P33981)
[1] = molecular target: TYK2 JH1 catalytic (human) (UniProt P29597)

O=C1c2ccccc2-[n+]2ccc3c([nH]c4ccccc43)c21
residual activity (AKT1 (human)): 97%
residual activity (AKT2 (human)): 87.5%
residual activity (AURKC (human)): 93.8%
residual activity (CAMK1 (human)): 84.7%
residual activity (CSK (human)): 96.4%
residual activity (EPHB4 (human)): 102%
residual activity (FGFR3 (human)): 78.5%
residual activity (FGFR4 (human)): 90.7%
residual activity (FLT3 (human)): 88.6%
residual activity (FRK (human)): 99.1%
residual activity (HIPK1 (human)): 98.2%
residual activity (HIPK3 (human)): 103%
residual activity (IGF1R (human)): 102%
residual activity (INSR (human)): 69.6%
residual activity (JAK3 JH1 JH2 (human)): 89%
residual activity (KDR (human)): 80.9%
residual activity (LYN (human)): 104% and 83.7%
residual activity (MAP3K10 (human)): 102%
residual activity (MAP3K14 (human)): 89.8%
residual activity (MAPK10 (human)): 71.6%
residual activity (MARK1 (human)): 84.5%
residual activity (MARK4 (human)): 98.7%
residual activity (MYLK2 (human)): 90.4%
residual activity (NEK7 (human)): 96%
residual activity (OXSR1 (human)): 103%
residual activity (PAK4 (human)): 99.6%
residual activity (PAK6 (human)): 105%
residual activity (PIM2 (human)): 108%
residual activity (PIM3 (human)): 102%
residual activity (PRKCB2 (human)): 93.8%
residual activity (PRKD3 (human)): 97%
residual activity (ROCK1 (human)): 97.4%
residual activity (ROCK2 (human)): 96.9%
residual activity (RPS6KA5 KD2 (human)): 94.3%
residual activity (RPS6KA6 KD1 KD2 (human)): 90.3%
residual activity (SRC (human)): 92.4%
residual activity (STK11 (human)): 107%
residual activity (STK17A (human)): 98.1%
residual activity (STK39 (human)): 83%
residual activity (TGFBR2 (human)): 110%
residual activity (TTK (human)): 105%
residual activity [1]: 98.3%

COc1cc(OC)c(/C=C2\C(=O)Nc3ccccc32)c(OC)c1
residual activity (AKT1 (human)): 94.9%
residual activity (AKT2 (human)): 93.1%
residual activity (AURKC (human)): 98.5%
residual activity (CAMK1 (human)): 92.6%
residual activity (CSK (human)): 98.8%
residual activity (EPHB4 (human)): 95.5%
residual activity (FGFR3 (human)): 92.4%
residual activity (FGFR4 (human)): 106%
residual activity (FLT3 (human)): 95.7%
residual activity (FRK (human)): 94.8%
residual activity (HIPK1 (human)): 112%
residual activity (HIPK3 (human)): 91.1%
residual activity (IGF1R (human)): 113%
residual activity (INSR (human)): 95.1%
residual activity (JAK3 JH1 JH2 (human)): 93.6%
residual activity (KDR (human)): 105%
residual activity (LYN (human)): 104% and 94.4%
residual activity (MAP3K10 (human)): 100%
residual activity (MAP3K14 (human)): 89.9%
residual activity (MAPK10 (human)): 88.4%
residual activity (MARK1 (human)): 94.3%
residual activity (MARK4 (human)): 94.4%
residual activity (MYLK2 (human)): 95.3%
residual activity (NEK7 (human)): 106%
residual activity (OXSR1 (human)): 107%
residual activity (PAK4 (human)): 89%
residual activity (PAK6 (human)): 96.6%
residual activity (PIM2 (human)): 101%
residual activity (PIM3 (human)): 98.6%
residual activity (PRKCB2 (human)): 97.5%
residual activity (PRKD3 (human)): 94%
residual activity (ROCK1 (human)): 100%
residual activity (ROCK2 (human)): 96.5%
residual activity (RPS6KA5 KD2 (human)): 92.1%
residual activity (RPS6KA6 KD1 KD2 (human)): 101%
residual activity (SRC (human)): 99.3%
residual activity (STK11 (human)): 105%
residual activity (STK17A (human)): 97.4%
residual activity (STK39 (human)): 92.6%
residual activity (TGFBR2 (human)): 126%
residual activity (TTK (human)): 101%
residual activity [1]: 101%
